Assay [1] deals with RIPK1 (Homo sapiens, UniProt Q13546). To be noted: WO2018092089; cited from earlier work.
In assay [2] the target is T1, hRIPK1 (aa 1-375) fusion protein (Homo sapiens, UniProt Q13546).
T1 sequence (Q13546 1-375): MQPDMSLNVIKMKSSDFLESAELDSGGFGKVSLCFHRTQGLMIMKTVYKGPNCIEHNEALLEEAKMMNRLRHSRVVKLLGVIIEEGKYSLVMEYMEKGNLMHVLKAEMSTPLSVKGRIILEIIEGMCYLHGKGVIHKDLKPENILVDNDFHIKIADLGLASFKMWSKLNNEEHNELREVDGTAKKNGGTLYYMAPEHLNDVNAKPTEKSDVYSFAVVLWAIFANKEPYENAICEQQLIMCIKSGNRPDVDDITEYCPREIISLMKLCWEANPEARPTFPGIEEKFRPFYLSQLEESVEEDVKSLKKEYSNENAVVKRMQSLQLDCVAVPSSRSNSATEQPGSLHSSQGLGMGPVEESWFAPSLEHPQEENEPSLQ
Nature of the assay: ADP-Glo kinase assay of RIPK1 catalytic activity (autophosphorylation).

For the compound `O=C(C1CCN(c2nccc(-c3ccccc3)n2)CC1)N1N=CCC1c1ccccc1` (centres unmarked) [Comparator Example A, (3-Phenyl-3,4-dihydropyrazol-2-yl)-[1-(4-phenylpyrimidin-2-yl)-4-piperidyl]methanone, reference compound], the “pIC50 (GSK data)” value in assay [1] is 8-9.

The IC50 is the concentration needed to halve the response being measured. `O=C(C1CCN(c2nccc(-c3ccccc3)n2)CC1)N1OCC[C@H]1c1ccccc1` [Comparator Example B, [(3S)-3-Phenylisoxazolidin-2-yl]-[1-(4-phenylpyrimidin-2-yl)-4-piperidyl]methanone, reference compound]: in assay [2], the midpoint of inhibition, the IC50, lay at 16.4 nM.

`Cc1nnc(-c2cc(N3CCC(C(=O)N4N=CC[C@H]4c4ccccc4)CC3)ncn2)o1` [Comparator Example C, [1-[6-(5-Methyl-1,3,4-oxadiazol-2-yl)pyrimidin-4-yl]-4-piperidyl]-[(3S)-3-phenyl-3,4-dihydropyrazol-2-yl]methanone, reference compound]: in assay [1], the “pIC50 (GSK data)” value was 7-9.

The compound `Cc1cc(-c2cc(N3CCC(C(=O)N4OCC[C@H]4c4cc(F)cc(C#N)c4)CC3)ncn2)n(C)n1` [Example 9, 3-[(3S)-2-[1-[6-(2,5-Dimethylpyrazol-3-yl)pyrimidin-4-yl]piperidine-4-carbonyl]isoxazolidin-3-yl]-5-fluoro-benzonitrile] registered an IC50 in assay [2] of 7 nM.

As for `Cn1nccc1-c1ncnc(N2CCC(C(=O)N3OCC[C@H]3c3cc(F)cc(F)c3)CC2)c1F` [Example 15, [(3S)-3-(3,5-Difluorophenyl)isoxazolidin-2-yl]-[1-[5-fluoro-6-(2-methylpyrazol-3-yl)pyrimidin-4-yl]-4-piperidyl]methanone], in assay [2], inhibition was half-maximal at 9 nM (IC50).
